Data taken from ChEMBL document CHEMBL1146036, “Structural determinants of opioid activity in derivatives of 14-aminomorphinones: effect of substitution in the aromatic ring of cinnamoylaminomorphinones and codeinones” (J Med Chem, 2006).

Protein sequences, listed by entry. Tags and fused reporters are not part of them.
UniProt P41143, whole entry, looked up: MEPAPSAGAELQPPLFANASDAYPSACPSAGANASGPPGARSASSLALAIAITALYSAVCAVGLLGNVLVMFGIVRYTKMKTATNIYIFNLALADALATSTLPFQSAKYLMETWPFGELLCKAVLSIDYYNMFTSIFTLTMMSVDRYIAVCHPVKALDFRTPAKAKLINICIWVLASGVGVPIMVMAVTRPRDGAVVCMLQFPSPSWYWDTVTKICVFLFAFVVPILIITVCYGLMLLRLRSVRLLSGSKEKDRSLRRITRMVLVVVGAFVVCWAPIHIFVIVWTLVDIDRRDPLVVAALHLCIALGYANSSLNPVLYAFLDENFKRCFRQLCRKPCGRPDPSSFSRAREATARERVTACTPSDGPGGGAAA

Biological target: Delta-type opioid receptor (Homo sapiens, UniProt P41143)
Assay: Stimulation of [35S]GTPgammaS binding to human recombinant DOR relative to DPDPE
Type: functional

Structure (SMILES): CN1CC[C@]23c4c5cccc4O[C@H]2C(=O)CC[C@@]3(NC(=O)/C=C/c2ccccc2Cl)[C@H]1C5
- Activity: 115%
